The text below walks through data of US20220349893A1, “METHODS FOR THE TREATMENT OF ARID1A-DEFICIENT CANCERS” (The Wistar Institute of Anatomy and Biology, priority 2019, published 2022).

Each structure is given as a SMILES string.

The test relates to Arid1a-/-/Pik3caH1047R ovarian clear cell carcinoma. Kind of test: Conditional genetic Arid1a/Pik3caH1047R OCCC mouse model.

Turning to `O=C(Cc1cccc(OC(F)(F)F)c1)Nc1ccc(CCCCc2nnc(NC(=O)Cc3ccccn3)s2)nn1` [CB-839, Telaglenastat], the “antitumor effect with aspartic acid free food” value is reported as “enhanced the antitumor effect”.
